{
  "sequences": {"note": "Protein sequences, listed by entry. Tags and fused reporters are not part of them. Residues count along the entry.", "UniProt Q07812, 1-166 C62S/C126S": "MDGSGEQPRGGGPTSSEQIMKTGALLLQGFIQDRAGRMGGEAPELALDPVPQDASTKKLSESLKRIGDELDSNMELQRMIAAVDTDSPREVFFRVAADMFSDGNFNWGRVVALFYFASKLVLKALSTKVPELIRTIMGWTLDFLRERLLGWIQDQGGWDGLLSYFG"},
  "source": "paper PMC12412652",
  "target": "MBP-BAX 1-166 C62S C126S, biotinylated (Avi tag, 6-histidine tag) (human) (UniProt Q07812)",
  "assay": "BLI; Octet RED96; biotinylated BCL-2 family proteins (25 nM) immobilised on streptavidin biosensors, designed protein in solution; 10 mM Hepes pH 7.4, 150 mM NaCl, 3 mM EDTA, 0.05% surfactant P20, 0.5% nonfat dry milk; titrations in triplicate, 1:1 binding model",
  "data": [
    {"substance": "BAX-CDP01 (BAX-targeting computationally designed protein 01) (designed binder)", "values": [
      {"measurement": "Kd", "value": 0.045, "unit": "µM"}
    ]}
  ]
}
